Results reported in patent US6858621B2, “2-(quinolonyl)-fused heterocycles as androgen receptor modulators” (Ortho-McNeil Pharmaceutical, Inc., priority 2002, dated 2005).

Protein sequences, listed by entry. Tags and fused reporters are not part of them. Residues count along the entry.
UniProt P15207, 651-882 limits assumed: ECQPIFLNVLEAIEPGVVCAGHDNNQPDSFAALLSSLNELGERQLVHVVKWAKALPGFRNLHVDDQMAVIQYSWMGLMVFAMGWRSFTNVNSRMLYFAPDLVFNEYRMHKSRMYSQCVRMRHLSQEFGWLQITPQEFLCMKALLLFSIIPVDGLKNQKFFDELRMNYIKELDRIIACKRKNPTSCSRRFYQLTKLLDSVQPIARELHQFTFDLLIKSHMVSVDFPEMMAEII

Molecular target: androgen receptor LBD (Panvera) (Rattus norvegicus, UniProt P15207)
Assay: Androgen Receptor Filtration Binding Assay (Panvera receptor)
Settings: read-out: Binding; Panvera receptor data; 0.5 nM [3H] R1881 tracer
Description: In Vitro Assay—Androgen Receptor Filtration Binding Assay
The assay was run on a 96 well plate with each well filled with total reaction volume 150 μL, of a solution containing 5 pmol androgen receptor LBD (Panvera) or […] of freshly prepared rat cytosol, 0.5 nM [^3H] R1881 tracer (NEN), 1.5 μL (10 μM) test compound or vehicle (diluted in 30% DMSO, final concentration of DMSO 0.75%) and […] of TED buffer. (TED buffer contains 10 mM Tris.HCl pH 7.4, 1 mM sodium molybdate (60 mg/250 mL), 1.5 mM EDTA, 1 mM DTT and 10% (v/v) glycerol.)
On day one, the solution containing receptor, tracer and TED buffer was distributed onto a 96 well plate. Diluted test compound or control vehicle was then added to individual wells and the plate incubated ay 4° C. overnight.
On day two, to each well was then added 20 μL human γ-globulin (ICN 823102), prepared at 25 mg/ml in TE pH 8.0 and 55 μL 40% polyethylene glycol 8000 (J T Baker U222-08), prepared in TE pH 8.0. The plate was incubated at 4° C. for 60 minutes. During incubation, the harvester was rinsed with 10% PEG 8000, prepared in TE pH 8.0 and the GF/C Unifilter-96 prewet with 10% PEG. The binding reaction was filtered, the retentate was washed three times with 10% PEG and dried under vacuum for about four minutes, then dried at 50° C. for 5 min and then bottom sealed. 25 μL of Microscint-20 (Packard) was added to the filter wells and top sealed. The plate wells were then counted on a TopCount (Packard).
Representative compounds of the present invention were tested for binding to the androgen receptor according to the procedure described above with results as listed in Table 3. % Inhibition values less that 0% indicate no binding at the […] level. The negative number(s) are a result of experimental error from the low number of counts detected.

For O=c1cc(C(F)(F)F)c2c3c(ccc2[nH]1)OCCN3, which IC50 is on record?
The IC50 was 12 µM.

For O=c1cc(C(F)(F)F)c2c3c(ccc2[nH]1)S(=O)(=O)CCN3, which IC50 is on record?
Its IC50 is 63 µM.

For Nc1ccc2c3c1c(C(F)(F)F)cc(=O)n3CCS2, which IC50 is on record?
The IC50 was 24 µM.

Which IC50 does the source give for O=c1cc(C(F)(F)F)c2c3c(ccc2[nH]1)SCCN3 here?
The IC50 was 7.2 µM.

Nc1ccc2c3c1C(O)(C(F)(F)F)CC(=O)N3CCS2 (centres unmarked) was tested. Which IC50 did it give?
The IC50 was 83 µM.
